# According to PubChem BioAssay AID1490 (National Center for Advancing Translational Sciences (NCATS), 2009):
# Values joined by “and” are separate entries in the source; they are usually repeats but may differ in a detail not shown here. Identical values can stand only once. Only a part is listed here, and it is no random draw. Inconclusive results are not listed. Active and inactive are the calls of the source. The call rests on the fitted dose curve; in most records, active means well fitted inhibition curve with a large enough effect; inconclusive means small, poorly fitted or top-dose-only effect, or another doubt; inactive means no such curve, though single readings can be large or run the other way.
# Molecular target: 4'-phosphopantetheinyl transferase ffp (Bacillus subtilis) (UniProt Q9F4F7)
# Assay: qHTS Assay for Inhibitors of Bacillus subtilis Sfp phosphopantetheinyl transferase (PPTase);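 further: the enzyme is Sfp with the accession as filed and its product quenches rhodamine fluorescence; 0% = enzyme reaction without inhibitor and -100% = no enzyme wells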
# Details: Biochemical Sfp PPTase activity
row,SMILES,"largest response in the series, negative = inhibition"
1,COc1cc(I)ccc1[As](=O)(O)O,inactive: -13.1%
2,Cc1c2c(nc3ccccc13)SC(C(Cl)Cl)C2 (stereo not drawn),inactive: -12.8%
3,Cc1cc(=O)[nH]c(N[N+](=O)[O-])n1,inactive: 5.12%
4,CCN(CC)CCCOC(=O)C(O)(c1ccccc1)c1ccccc1,inactive: 10.4%
5,O=C(OC1CN2CCC1CC2)C12CC3CC(CC(C3)C1)C2 (stereo not drawn),inactive: -11%
6,COc1ccc(N/C(=N/P(=O)(N2CCOCC2)N2CCOCC2)N2CCOCC2)cc1,inactive: 24.9%
7,Cc1ccc(OP(=O)(Nc2ccc([N+](=O)[O-])cn2)Oc2ccc(C)cc2)cc1,inactive: 7.32%
8,Cc1ccc2nc3c(c(C)c2c1)CC(C(Cl)Cl)S3 (stereo not drawn),inactive: -5.37%
9,C[As](=O)(O)c1cccc(C(=O)O)c1,inactive: -9.03%
10,O=[As](O)(c1ccc(O)cc1)c1ccccc1O,inactive: 24.1%
11,CC(C)NC(=O)NP(=O)(Oc1ccccc1)Oc1ccccc1,inactive: 2.71%
12,CCN(CC)C(=S)SC(NC=O)C(Cl)(Cl)Cl (stereo not drawn),inactive: 4.06%
13,ClCCSc1nnc(-c2cccnc2)o1,inactive: -1.64%
14,CC(C)c1ccc(OP(=O)(Nc2ccccn2)Oc2ccccc2F)cc1 (stereo not drawn),inactive: 22.5%
15,CCCCOc1ccc(C(=O)NCC2(N3CCCCC3)CCCCC2)cc1OC,inactive: 18.3%
16,O=P(Nc1ccccn1)(c1cccc2ccccc12)c1cccc2ccccc12,inactive: -10.5%
17,O=[N+]([O-])c1ccc(Nc2ccc(Oc3ccc([N+](=O)[O-])cc3[N+](=O)[O-])cc2)c([N+](=O)[O-])c1,inactive: 10%
18,CCOC(=O)Nc1cccc([As](=O)(O)O)c1,inactive: 3.49%
19,O=C(Nc1ccncc1[N+](=O)[O-])c1ccc([N+](=O)[O-])cc1[N+](=O)[O-],inactive: 6.05%
20,O=C(COc1ccccc1)OC1CN2CCC1CC2 (stereo not drawn),inactive: 13.2%
21,COP1(=S)c2c(C)nn(CCC#N)c2N=C(c2ccc(F)cc2)N1C (stereo not drawn),inactive: -4.55%

row,SMILES,"largest response in the series, negative = inhibition"
1,CCC(C)N(CC(C)C)C(=S)SC(NC(C)=O)C(Cl)(Cl)Cl (stereo not drawn),inactive: -16.8%
2,O=C(OC1CN2CCC1CC2)c1cccc([N+](=O)[O-])c1 (stereo not drawn),inactive: -1.95%
3,CCOC(=O)c1ccc(NC(=O)C(C)(CCl)SC)cc1 (stereo not drawn),inactive: 2.21%
4,CCOP(=O)(NC(=NC(C)c1ccccc1)NC(C)c1ccccc1)OCC (stereo not drawn),inactive: 10.7%
5,O=P1(Nc2ccccn2)COc2ccccc2OC1,inactive: -1.96%
6,CCC1=CC2Cc3nc4ccc(Cl)cc4c(N)c3C(C1)C2 (stereo not drawn),inactive: 5.38%
7,CCOP(=O)(Nc1ccc(C)cn1)OCC,inactive: 14%
8,CN(CCCl)Cc1cc(Cl)c(NC2=NCCN2)c(Cl)c1,inactive: -19.5%
9,CC(C)/C=N\N=C(\N)N[N+](=O)[O-],inactive: 9.01%
10,CN(C(=O)Cc1ccc(Cl)c(Cl)c1)[C@@H]1CCCC[C@H]1N1CCCC1,inactive: 13.2% and inactive: 4.48%
11,O=[As](O)(c1ccccc1Br)c1ccccc1Br,inactive: 14.8%
12,CN(C)C1(CNC(=O)c2ccc(S(C)(=O)=O)cc2)CCCCC1,inactive: 6.75%
13,O=C(/C=C/c1ccccc1)OC1CN2CCC1CC2 (stereo not drawn),inactive: -9.74%
14,CC1CCC(C(C)C)C(OP(=O)(Nc2ccccn2)c2ccccc2)C1 (stereo not drawn),inactive: 9.51%
15,Cc1ccc(C(=O)OC2CN3CCC2CC3)cc1 (stereo not drawn),inactive: 14.6%
16,Cc1nn(-c2ccccc2)c2c1P(=O)(N1CCOCC1)N(C)C(c1ccccc1)=N2 (stereo not drawn),inactive: 19.2%
17,COc1cc(C2NCCC3(OCCO3)C2(C)C)cc(OC)c1OC.O=[N+]([O-])c1cc([N+](=O)[O-])c(O)c([N+](=O)[O-])c1 (stereo not drawn),inactive: 5.85%
18,Nc1cccc([As](=O)(O)c2ccccc2)c1,inactive: 4.2%
19,Cc1ccc(OCC(=O)OC2CN3CCC2CC3)cc1 (stereo not drawn),inactive: 3.43%
20,O=[As](O)(c1cccs1)c1cccs1,inactive: 5.01%
21,O=P1(Nc2ccc(Br)cn2)COc2ccccc2OC1,inactive: 10.8%

row,SMILES,"largest response in the series, negative = inhibition"
1,CN1CCCCC1COC(=O)C1(O)c2ccccc2CCc2ccccc21 (stereo not drawn),inactive: 1.64%
2,O=P1(Nc2ncccn2)COc2ccccc2OC1,inactive: -3.58%
3,Nc1ccccc1[As](=O)(O)c1ccccc1,inactive: 27.4%
4,O=P(Nc1nccs1)(Oc1ccccc1)Oc1ccccc1,inactive: -8.34%
5,O=P(Nc1nccs1)(c1ccccc1)c1nc2ccccc2s1 (stereo not drawn),inactive: -89.1%
6,CCOP1(=S)c2c(C)nn(CCC#N)c2N=C(c2ccccc2F)N1C (stereo not drawn),inactive: 12.9%
7,CN(C(=O)Cc1ccccc1)[C@@H]1CC[C@]2(CCCO2)C[C@H]1N1CCCC1,inactive: 4.35%
8,CCOP1(=S)c2c(C)nn(CCC#N)c2N=C(c2ccc(F)cc2)N1C (stereo not drawn),inactive: -9.06%
9,O=[N+]([O-])c1ccc2c(c1)nnn2O,inactive: 13.2%
10,NC(=O)Nc1ccc([As](=O)(O)O)cc1,inactive: 10.2% and inactive: 14.5% and inactive: 11.3%
11,Cc1cccc(OCC(=O)OC2CN3CCC2CC3)c1 (stereo not drawn),inactive: 0.584%
12,O=[As](O)(c1cccc(O)c1)c1cccc(O)c1,inactive: 29.3%
13,CN(C(=O)Cc1ccc(Cl)c(Cl)c1)[C@@H]1CC[C@]2(CCCO2)C[C@H]1N1CCCC1,inactive: -25.1%
14,O=C(OC1CN2CCC1CC2)c1ccc(Cl)cc1 (stereo not drawn),inactive: 17.6%
15,CS(=O)(=O)c1ccc(Cl)c(NC(=O)COC(=O)C(O)(c2ccccc2)c2ccccc2)c1,inactive: 9.27%
16,O=[As](O)(O)c1cccnc1,inactive: 7.01%
17,COc1cc(C(=O)NCC2(N3CCOCC3)CCCCC2)cc(Cl)c1OC(C)C,inactive: 3.58%
18,CCOP(=O)(Nc1cccc2ccccc12)OCC,inactive: 3.66%
19,Cc1ccc(NCCc2c([N+](=O)[O-])cc([N+](=O)[O-])cc2[N+](=O)[O-])cc1,inactive: -12.1%
20,Nc1cccc2c([As](=O)(O)O)cccc12,inactive: -16.6%
21,CCCOP(=S)(Nc1nc(N)cc(=O)[nH]1)OCCC,inactive: -1.94%
